Measured values reported in BindingDB's records for doi:10.1186/1471-2091-12-59 (Ghent University, 2011).
pKd: −log10 of the molar value.

Target: T1, HbpA (Pasteurella multocida (strain Pm70), UniProt Q9CN51)
T1 sequence (Q9CN51 whole entry): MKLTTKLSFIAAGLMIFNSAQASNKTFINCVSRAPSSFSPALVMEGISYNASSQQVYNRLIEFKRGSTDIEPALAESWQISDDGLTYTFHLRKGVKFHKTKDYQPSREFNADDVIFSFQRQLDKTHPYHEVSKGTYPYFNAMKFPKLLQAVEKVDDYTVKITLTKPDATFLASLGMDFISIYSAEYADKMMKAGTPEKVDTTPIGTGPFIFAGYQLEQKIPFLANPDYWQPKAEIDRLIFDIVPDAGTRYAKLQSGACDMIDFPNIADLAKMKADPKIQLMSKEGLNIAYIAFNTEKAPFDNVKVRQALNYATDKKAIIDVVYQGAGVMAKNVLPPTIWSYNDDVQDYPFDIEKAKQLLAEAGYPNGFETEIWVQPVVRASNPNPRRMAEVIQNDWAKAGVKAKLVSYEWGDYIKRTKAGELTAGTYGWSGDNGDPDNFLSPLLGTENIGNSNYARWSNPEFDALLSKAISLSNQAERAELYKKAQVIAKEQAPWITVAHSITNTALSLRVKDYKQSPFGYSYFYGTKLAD
Experiment: Isothermal Titration Calorimetry (ITC)
Settings: pH 7.4; 37 °C
Method: Purified test proteins were dialyzed overnight against 10 mM Tris-HCl, pH 7.4, at 4°C. The resultant dialysis buffer was then used to dissolve the test compounds. Titrations were always preceded by an initial injection of 3 μL and were carried out using 10-μL injections applied 300 s apart. The sample was stirred at a speed of 400 rpm throughout.

CSC[C@H](NC(=O)CC[C@H](N)C(=O)O)C(=O)NCC(=O)O [S-methylglutathione]
pKd: 6.26
